Source: US12528818B2, “Compositions and methods for inhibition of RAS” (Leidos Biomedical Research, Inc., priority 2021, dated 2026)

Key:
[1] = molecular target: GDP-loaded KRAS4b (amino acids 1-169) G12C/C118S protein (Homo sapiens, UniProt P01116, C118S/G12C); assay: Covalent cysteine 12 modification by MALDI-TOF MS, GDP-loaded KRAS G12C; type: biochemical; conditions: 15 minutes reaction time, compound 95 or later using 1 μM proteins
[2] = molecular target: Avi-KRAS G12C (1-169) GppNHp/RAF1 RBD-3xFLAG (52-151) (Homo sapiens, UniProt P01116, G12C); assay: biochemical; conditions: Raf1-GppNHp-KRAS G12C disruption, Raf1 RBD-KRAS G12C-GppNHp disruption assay IC50
[3] = molecular target: GppNHp-loaded KRAS4b (amino acids 1-169) G12C/C118S protein (Homo sapiens, UniProt P01116, C118S/G12C); assay: Covalent cysteine 12 modification by MALDI-TOF MS, GppNHp-loaded KRAS G12C; type: biochemical; conditions: 15 minutes reaction time, compound 95 or later using 1 μM proteins

SMILES | GDP-KRAS G12C percent of modification [1] | IC50 [2] | GppNHp-KRAS G12C percent of modification [3]
C=C(F)C(=O)N1CCN(c2nc(OC[C@@]34CCCN3C[C@H](F)C4)nc3c(F)c(-c4ccc(F)c5sc(N)nc45)c(C(F)(F)F)cc23)C[C@H]1C [Compound 208] | B (50≤percent of modification <70%) | 5000 to 20000 nM | D (percent of modification <10%)
C=CC(=O)N1CC(N(c2nc(OC[C@]34CCCN3C[C@H](F)C4)nc3c(F)c(-c4ccc(F)c5sc(N)nc45)c(Cl)cc23)C2CC2)C1 [Compound 210] | C (10%≤percent of modification <50%) | > 20000 nM | D (percent of modification <10%)
C=CC(=O)N1CCN(c2nc(OC[C@@H]3CCCN3C)nc3c(F)c(-c4ccc(F)c5sc(N)nc45)c(C(F)F)cc23)CC1 [Compound 211] | A (percent of modification ≥70%) | 5000 to 20000 nM | D (percent of modification <10%)
C=CC(=O)N1CCN(c2nc(OCC34CCCN3CCC4)nc3c(F)c(-c4ccc(F)c5sc(N)nc45)c(OC)cc23)CC1 [Compound 212] | A (percent of modification ≥70%) | > 20000 nM | C (10%≤percent of modification <50%)
C=CC(=O)N1[C@H](C)CN(c2nc(OC[C@]34CCCN3C[C@H](F)C4)nc3c(F)c(-c4ccc(F)c5sc(N)nc45)c(C(F)(F)F)cc23)C[C@@H]1C [Compound 215] | B (50≤percent of modification <70%) | < 500 nM | C (10%≤percent of modification <50%)
C=CC(=O)N1CCN(c2nc(OC[C@@H]3CCCN3C)nc3c(F)c(-c4ccc(F)c5sc(N)nc45)c(C)cc23)CC1 [Compound 216] | A (percent of modification ≥70%) | 500 to 5000 nM | D (percent of modification <10%)
C=CC(=O)N1CCN(c2nc(OC[C@@]34CCCN3C[C@@H](F)C4)nc3c(F)c(-c4ccc(F)c5sc(N)nc45)c(C(F)(F)F)cc23)[C@H](C)C1 [Compound 217] | B (50≤percent of modification <70%) | 500 to 5000 nM | D (percent of modification <10%)
C=CC(=O)N1CCN(c2nc(OC[C@@]34CCCN3C[C@@H](F)C4)nc3c(F)c(-c4ccc(F)c5sc(N)nc45)c(C(F)(F)F)cc23)[C@@H](C)C1 [Compound 218] | A (percent of modification ≥70%) | < 500 nM | C (10%≤percent of modification <50%)
C=CC(=O)N1C[C@H](C)N(c2nc(OC[C@@]34CCCN3C[C@@H](F)C4)nc3c(F)c(-c4ccc(F)c5sc(N)nc45)c(C(F)(F)F)cc23)C[C@H]1C [Compound 219] | A (percent of modification ≥70%) | < 500 nM | C (10%≤percent of modification <50%)
C=CC(=O)N1CCN(c2nc(OC[C@@]34CCCN3C[C@@H](F)C4)nc3c(F)c(-c4ccc(F)c5sc(N)nc45)c(C(F)(F)F)cc23)C[C@H]1C [Compound 220] | D (percent of modification <10%) | 500 to 5000 nM | D (percent of modification <10%)
C=CC(=O)N1CC(N(C)c2nc(OC[C@@]34CCCN3C[C@H](F)C4)nc3c(F)c(-c4ccc(F)c5sc(N)nc45)c(C(F)(F)F)cc23)C1 [Compound 223] | A (percent of modification ≥70%) | < 500 nM | B (50≤percent of modification <70%)
C=CC(=O)N1[C@H](C)CN(c2nc(OC[C@@]34CCCN3C[C@@H](F)C4)nc3c(F)c(-c4ccc(F)c5sc(N)nc45)c(C(F)(F)F)cc23)C[C@@H]1C [Compound 224] | A (percent of modification ≥70%) | 500 to 5000 nM | D (percent of modification <10%)
C=CC(=O)N1CC[C@@H](N(C)c2ncnc3c(F)c(-c4ccc(F)c5sc(N)nc45)c(C(F)(F)F)cc23)C1 [Compound 225] | A (percent of modification ≥70%) | 5000 to 20000 nM | D (percent of modification <10%)
C=CC(=O)N1CC[C@@H](N(C)c2nc(OCC34CCCN3CCC4)nc3c(F)c(-c4cc(O)cc5ccccc45)c(C(F)(F)F)cc23)C1 [Compound 226] | A (percent of modification ≥70%) | < 500 nM | A (percent of modification ≥70%)
C=CC(=O)N1CC[C@@H](N(C)c2nc(OCC34CCCN3CCC4)nc3c(F)c(-c4c(O)cccc4F)c(C(F)(F)F)cc23)C1 [Compound 227] | A (percent of modification ≥70%) | 500 to 5000 nM | C (10%≤percent of modification <50%)
C=CC(=O)N1CC[C@@H](N(C)c2nc(OC[C@@H]3CCCN3C)nc3c(F)c(-c4ccc(F)c5sc(N)nc45)c(C(F)(F)F)cc23)C1 [Compound 230] | C (10%≤percent of modification <50%) | < 500 nM | C (10%≤percent of modification <50%)
C=CC(=O)N1C[C@H](C)N(c2nc(OC[C@@]34CCCN3C[C@H](F)C4)nc3c(F)c(-c4ccc(F)c5sc(N)nc45)c(OC(F)(F)F)cc23)C[C@H]1C [Compound 235, 1-((2R,5S)-4-(7-(2-amino-7-fluorobenzo[d]thiazol-4-yl)-8-fluoro-2-(((2R,7aS)-2-fluorotetrahydro-1H-pyrrolizin-7a(5H)-yl)methoxy)-6-(trifluoromethoxy)quinazolin-4-yl)-2,5-dimethylpiperazin-1-yl)prop-2-en-1-one] | A (percent of modification ≥70%) | < 500 nM | C (10%≤percent of modification <50%)
C=CC(=O)N1CC[C@@H](N(C)c2nc(OC[C@@]34CCCN3C[C@H](F)C4)nc3c(F)c(-c4ccc(F)c5sc(N)nc45)c(OC(F)(F)F)cc23)C1 [Compound 238, 1-((3R)-3-((7-(2-amino-7-fluorobenzo[d]thiazol-4-yl)-8-fluoro-2-(((2R,7aS)-2-fluorotetrahydro-1H-pyrrolizin-7a(5H)-yl)methoxy)-6-(trifluoromethoxy)quinazolin-4-yl)(methyl)amino)pyrrolidin-1-yl)prop-2-en-1-one] | A (percent of modification ≥70%) | < 500 nM | B (50≤percent of modification <70%)
Nc1nc2c(-c3c(C(F)(F)F)cc4c(NC5CN(C(=O)C6CN6)C5)nc(OCC56CCCN5CCC6)nc4c3F)ccc(F)c2s1 (stereo not drawn) [Compound 243, (3-((7-(2-amino-7-fluorobenzo[d]thiazol-4-yl)-8-fluoro-2-((tetrahydro-1H-pyrrolizin-7a(5H)-yl)methoxy)-6-(trifluoromethyl)quinazolin-4-yl)amino)azetidin-1-yl)(aziridin-2-yl)methanone] | D (percent of modification <10%) | 500 to 5000 nM | D (percent of modification <10%)
C=CC(=O)N1CCN(c2nc(OCC34CCCN3CCC4)nc3c(F)c(-c4ccc(F)c5sc(N)nc45)c(C(F)F)cc23)CC1 [Compound 246] | A (percent of modification ≥70%) | < 500 nM | C (10%≤percent of modification <50%)
